## Binding of CDR-mutated scFvs to a peptide of the spike HR2 region

Binding partner: SARS-CoV-2 spike HR2 peptide, sequence PDVDLGDISGINAS.

The variants keep the light chain, the linker and the frameworks of Ab-14 (scFv order VH, the linker GGGGSGGGGSGGGGS, VL).
VH: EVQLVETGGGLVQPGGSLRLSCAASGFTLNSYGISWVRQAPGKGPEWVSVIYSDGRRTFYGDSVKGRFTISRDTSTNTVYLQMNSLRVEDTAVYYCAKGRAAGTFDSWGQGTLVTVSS
VL: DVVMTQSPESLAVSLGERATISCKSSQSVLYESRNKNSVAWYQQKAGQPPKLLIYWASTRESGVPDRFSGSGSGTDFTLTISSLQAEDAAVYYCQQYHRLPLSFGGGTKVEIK

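The starting antibody came from a phage panning campaign against this peptide. These sequences belong to a second round, designed from the earlier measurements on random variants of the parent. Several design methods are mixed in this list. The assay is AlphaSeq: two haploid yeast populations carry antibody and antigen on their surface. Binding brings cells together so that they mate, and sequencing counts the barcode pairs among the diploids. The ratio of observed to expected reads was calibrated, replicate by replicate, on BCL2-family standards whose Kd was known from biolayer interferometry. Each pool was mated in six replicate cultures.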

Substitutions are numbered in sequence along the VH above, starting at 1 (not Kabat).
Variants here have at most six changes.
Values are apparent Kd, the geometric mean of the replicates that gave a signal; lower means stronger binding.
"nd" marks a missing value. The strain was present, yet no cells mated with the target were sequenced in any replicate, which points to weak or no binding.

- T28D/R56S/T104W/D106N: nd (0 of 6 replicates)
- R56L/G61T/R100Q: 13 nM (6 of 6 replicates)
- S31D/G61H/A101T/D106I: 100 nM (3 of 6 replicates)
- G61A/G103V: 160 nM (6 of 6 replicates)
- T28S/G61H/R100S: 3.7 nM (6 of 6 replicates)
- T28S/S53A/S107Q: 1.2 nM (6 of 6 replicates)
- S31E/F59A/D106G: 93 nM (2 of 6 replicates)
- S31E/I51D/A102H: nd (0 of 6 replicates)
- S31E/G61T/A101E/S107F: 10 nM (6 of 6 replicates)
- G103V/S107H: nd (0 of 6 replicates)
- F59A/A101W/T104W: nd (0 of 6 replicates)
- T28H/S107Q: nd (0 of 6 replicates)
- G61D/R100T/T104E/D106K: nd (0 of 6 replicates)
- S31E/G103E/S107L: nd (0 of 6 replicates)
- R56F/T58V/Y60I: nd (0 of 6 replicates)
- L29I/Y52Q/R100N/A101E/G103Q/T104M: nd (0 of 6 replicates)
- T28Q/G61Q/R100N/A101V: 18 nM (2 of 6 replicates)
- T28E/F59Q: nd (0 of 6 replicates)
- G61T/R100A/D106L: nd (0 of 6 replicates)
- T28S/G61D/R100H/A101Q: nd (0 of 6 replicates)
- T28Q/S31T/G61A/R100Q: 3.1 nM (6 of 6 replicates)
- T28S/S53A/S63R/R100Q/S107K: 210 pM (6 of 6 replicates)
- T28G/S31E/G61K: 420 nM (2 of 6 replicates)
- T28D/G61A/S63R/R100Q: 2.9 nM (6 of 6 replicates)
- T28D/R100N/A101T/S107R: 1.2 nM (6 of 6 replicates)
- T28Q/G61K/S63Q/R100Q/A101T: 150 nM (1 of 6 replicates)
- S31E/R56K/S63A/A101T: 890 pM (6 of 6 replicates)
- T28G/G61I/R100Q/A101E: 9.6 nM (6 of 6 replicates)
- T28D/G61V/R100N: 1.3 nM (6 of 6 replicates)
- S31E/G61T/A101V/S107I: 1.3 nM (6 of 6 replicates)
- T28G/G61S/R100K/A101E: 1.1 nM (4 of 6 replicates)
- R100Q/A101T/S107Q: 1.2 nM (4 of 6 replicates)
- L29V/A101V: 2.4 nM (6 of 6 replicates)
- T28S/G61S/R100K/A101I: 2.3 nM (6 of 6 replicates)

The opening 5 entries, copied out:

- T28D/R56S/T104W/D106N -> nd (0 of 6 replicates)
- R56L/G61T/R100Q -> 13 nM (6 of 6 replicates)
- S31D/G61H/A101T/D106I -> 100 nM (3 of 6 replicates)
- G61A/G103V -> 160 nM (6 of 6 replicates)
- T28S/G61H/R100S -> 3.7 nM (6 of 6 replicates)

Of ten entries with the parent sequence, four were seen in most replicates (averages 2.2 nM to 240 nM), three in one and three in none, so single entries are noisy.
The authors' rule: three or more of the six replicates give a measured affinity, fewer mean a poor binder.
As a blank, each scFv also met three strains without target: over all heavy chain designs, 1% of these pairings were detected, typically at 120 nM and seldom below 7.0 nM.
The range of this assay differs from that of the first round, and the authors advise against merging the two.

Source: Li et al. 2023 (doi:10.1038/s41467-023-39022-2), MIT Lincoln Laboratory and A-Alpha Bio; data file from the FLAb repository.